Paper PMC10740061 (Food Chemistry: X, 2023)
Marks after values point to notes of the source that are not given here.

Tested on: Caco-2 monolayer
Assay: Caco-2 monolayer transmembrane transport, apical to basolateral
Format: in vitro ADME, human
Conditions: WD (wheat flour digested products) 400 µg/mL; 40 µM flavonoid; 6 h; A to B; mean ± SD (n = 3)

PappAtoB: 10.77 ± 0.07^a × 10^-6 cm/s
Compound: Oc1cc(O)c2c(c1)O[C@H](c1ccc(O)c(O)c1)[C@@H](O)C2 [(+)-Catechin]
